Reference: US20250228873A1, “C25 R AND S ISOMERS OF AMINOSTEROLS AND METHODS OF MAKING AND USING THE SAME” (Enterin, Inc., priority 2022, published 2025)

Protein sequences, listed by entry. Tags and fused reporters are not part of them.
UniProt P62136, whole entry: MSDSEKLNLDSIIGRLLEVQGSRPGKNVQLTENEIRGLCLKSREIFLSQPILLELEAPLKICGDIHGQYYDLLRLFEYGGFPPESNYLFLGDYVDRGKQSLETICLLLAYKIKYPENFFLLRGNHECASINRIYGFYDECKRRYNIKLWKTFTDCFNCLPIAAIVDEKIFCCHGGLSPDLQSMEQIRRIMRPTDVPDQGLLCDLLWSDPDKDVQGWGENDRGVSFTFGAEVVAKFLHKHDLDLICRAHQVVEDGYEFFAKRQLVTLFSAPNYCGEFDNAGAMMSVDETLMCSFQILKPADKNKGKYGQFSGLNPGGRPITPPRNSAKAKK
UniProt P62140, whole entry: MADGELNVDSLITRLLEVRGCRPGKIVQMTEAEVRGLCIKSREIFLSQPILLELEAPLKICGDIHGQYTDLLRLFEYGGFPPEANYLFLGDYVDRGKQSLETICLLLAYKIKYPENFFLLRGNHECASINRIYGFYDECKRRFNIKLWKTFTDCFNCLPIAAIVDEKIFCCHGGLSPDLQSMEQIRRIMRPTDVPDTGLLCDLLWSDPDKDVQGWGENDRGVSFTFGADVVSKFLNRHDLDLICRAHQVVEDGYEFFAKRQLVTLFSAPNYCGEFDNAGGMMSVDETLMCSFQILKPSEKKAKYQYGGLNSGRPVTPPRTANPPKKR

Legend:
Test in all cases: Phosphatase panel, DiFMUP fluorescence assay
Format in all cases: biochemical
PTPN7/LC-PTP = biological target: T1, PTPN7/LC-PTP (Homo sapiens, UniProt P35236)
T1 construct: purchased Recation Biology Inc
T1 sequence (P35236 1-360): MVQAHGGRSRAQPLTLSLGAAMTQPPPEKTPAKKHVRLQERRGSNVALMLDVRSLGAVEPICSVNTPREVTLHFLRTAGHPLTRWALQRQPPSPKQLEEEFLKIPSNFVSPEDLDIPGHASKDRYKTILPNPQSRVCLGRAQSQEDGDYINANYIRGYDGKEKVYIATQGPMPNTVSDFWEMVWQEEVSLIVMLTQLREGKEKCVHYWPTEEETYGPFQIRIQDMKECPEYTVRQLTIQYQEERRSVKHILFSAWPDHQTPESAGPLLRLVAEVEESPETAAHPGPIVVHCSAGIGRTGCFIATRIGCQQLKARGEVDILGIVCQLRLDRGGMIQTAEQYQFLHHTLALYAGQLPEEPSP

PP1A = biological target: T2, PP1A (Homo sapiens, UniProt P62136)
T2 construct: purchased Recation Biology Inc

PP1B = biological target: T3, PP1B (Homo sapiens, UniProt P62140)
T3 construct: purchased Recation Biology Inc

DUSP22/MKPX = biological target: T4, DUSP22/MKPX (Homo sapiens, UniProt Q9NRW4)
T4 construct: purchased Recation Biology Inc
T4 sequence (Q9NRW4 1-184): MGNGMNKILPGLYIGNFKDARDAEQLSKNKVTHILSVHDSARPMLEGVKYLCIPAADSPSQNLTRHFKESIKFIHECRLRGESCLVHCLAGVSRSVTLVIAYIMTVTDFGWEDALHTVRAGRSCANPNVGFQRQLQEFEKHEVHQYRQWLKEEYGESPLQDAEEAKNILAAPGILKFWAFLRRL

Q: CCc1oc2cc(S(=O)(=O)Nc3ccc(S(=O)(=O)Nc4nccs4)cc3)ccc2c1C(=O)c1cc(Br)c(O)c(Br)c1 [PTP1B Inhibitor, 3-(3,5-Dibromo-4-hydroxy-benzoyl)-2-ethyl-benzofuran-6-sulfonicacid-(4-(thiazol-2-ylsulfamyl)-phenyl)-amide, reference compound] was tested. Which IC50 (PTPN7/LC-PTP) did it give?
A: Its IC50 is 6.89e-06 M.

Q: And the IC50 (PTPN7/LC-PTP; Table 5C, read-out: Compound IC50 (M) PTPN7/LC-PTP)?
A: The IC50 was 1.28e-05 M.

Q: And the IC50 (PTPN7/LC-PTP; Table 18B, read-out: inhibitory activity PTPN7/LC-PTP)?
A: The IC50 was 8.65e-06 M.

Q: And the IC50 (PP1A)?
A: Its IC50 is 6.91e-06 M.

Q: What about the IC50 (PP1A; Table 5B, read-out: Compound IC50 (M) PP1A) of the same compound?
A: The IC50 was 2.15e-05 M.

Q: What about the IC50 (PP1A; Table 19A, read-out: inhibitory activity PP1A) of the same compound?
A: Its IC50 is 6.45e-06 M.

Q: And the IC50 (PP1B; Table 5B, read-out: Compound IC50 (M) PP1B)?
A: Its IC50 is 3.46e-05 M.

Q: What about the IC50 (PP1B; inhibitory activity PP1B, Table 18A) of the same compound?
A: Its IC50 is 5.99e-06 M.

Q: And the IC50 (PP1B; inhibitory activity PP1B, Table 19A)?
A: The IC50 was 4.97e-06 M.

Q: And the IC50 (DUSP22/MKPX)?
A: Its IC50 is 9.63e-06 M.

Q: What about the IC50 (DUSP22/MKPX; Table 5B, read-out: Compound IC50 (M) DUSP22/MKPX) of the same compound?
A: Its IC50 is 1.45e-05 M.

Q: What about the IC50 (DUSP22/MKPX; Table 19A, read-out: inhibitory activity DUSP22/MKPXPT) of the same compound?
A: The IC50 was 7.23e-06 M.

Where two headings read alike, the source gives them in different places.
